In patent US20260274853A1, “BIFUNCTIONAL COMPOUNDS CONTAINING PYRIMIDINE DERIVATIVES FOR DEGRADING CYCLIN-DEPENDENT KINASE 2 VIA UBIQUITIN PROTEASOME PATHWAY” (NIKANG THERAPEUTICS, INC., priority 2022, published 2026) one finds IC50 and DC50 data, which are given here for 2 compounds.

Assay [1] has as its target T1, CDK2 (Homo sapiens, UniProt P24941). As to the kind of experiment: Inhibition of CDK2: phospho-Rb (S807/811) HTRF measurement in OVCAR3 cells. The settings on record: read-out: pRb (nM), IC50 in pRB(S807/811) assay, 24 h compound treatment. As for the experimental part: Phosphorylation of RB protein at S807/811 were measured using HTRF phospho-RB cellular kits (Cat #64RBS807PEG) from Cisbio.
On Day 1, OVCAR3 (dependent on CDK2) cells were seeded into 96-well tissue-culture treated plates at 20,000 cells/well in 200 μL and incubated overnight at 37° C. in CO2 atmosphere. On Day 2, the cells were treated with test compounds at concentrations from 0.3 to 10,000 nM using HP D300 digital dispenser. Twenty-four hours after compound treatment, cell culture media was removed by flicking the plate and tapping the plate against clean paper towel. Immediately 30 μL 1× lysis buffer was supplemented from the kit and the plate was incubated at room temperature on shaker for 30 min. After homogenization by pipetting up and down, 8 μL cell lysate from 96-well cell culture plate was transferred to 384-well small volume white detection plate. 2 μL premixed detection solution was added and the plate was covered with sealer. […] Detection plates were incubated for 4 h at room temperature and read on ClarioStar (BMG Labtech) in TR-FRET mode ([…]). […] Half maximal inhibition concentration (IC50) values are calculated with a four-parameter logistic fit using GraphPad Prism (version 8; La Jolla, CA). […]
Background: Time-resolved FRET reads energy transfer from a long-lived donor to a nearby acceptor.

For assay [2], the target named is T1, CDK2. As to the kind of experiment: CDK2 HTRF assay: cellular endogenous CDK2 level in OVCAR3 cells. As to conditions: read-out: DC50 (half maximal degradation concentration of CDK2), 24 hours compound treatment. As for the experimental part:
Effects of compounds on cellular CDK2 level can be monitored by a high-throughput HTRF assay or traditional Western Blot assay.
To determine half maximal degradation concentration (DC50) values of compounds, cellular CDK2 level was measured in 96-well format using HTRF total CDK2 cellular kit (Cat #64CDK2TPEG) from Cisbio.
On Day 1, OVCAR3 cells were seeded into 96-well tissue-culture treated plates at 20,000 cells/well in 200 μL and incubated overnight at 37° C. in CO2 atmosphere. On Day 2 cells were treated with compounds at concentration ranging from 0.3 to 10,000 nM using HP D300 digital dispenser. 24 hours after compound treatment, cell culture media was removed by flicking the plate and tapping the plate against clean paper towel. Immediately 30 μL 1× lysis buffer was supplemented from the kit and the plate was incubated at room temperature on shaker for 30 min. After homogenization by pipetting up and down, 8 μL cell lysate from 96-well cell culture plate was transferred to 384-well small volume white detection plate. […] Detection plates were incubated overnight at room temperature and read on ClarioStar (BMG Labtech) in TR-FRET mode (665 nM and 620 nM). […] Half maximal degradation concentration (DC50) values were calculated with a four-parameter logistic fit using GraphPad Prism (version 8; La Jolla, CA). […]

With `O=C1CCN(c2nn(CC(F)(F)F)c3cc(N4CCN(Cc5cccc(S(=O)(=O)N6CCC(Nc7ncc(C(F)(F)F)c(-c8cnn(CC(F)(F)F)c8)n7)CC6)c5)CC4)ccc23)C(=O)N1`, the IC50 in assay [1] fell in the range of 100 to 500 nM.

Take `Cn1cnc(-c2nc(NC3CCN(S(=O)(=O)c4cccc(CN5CCC(c6ccc7c(N8CCC(=O)NC8=O)nn(C)c7c6)CC5)c4)CC3)ncc2C(F)(F)F)c1`: the DC50 in assay [2] was under 100 nM. Further, in assay [1], the IC50 was under 100 nM.
